Reference: PubChem BioAssay AID493011 (Sanford-Burnham Center for Chemical Genomics, 2011)
Only a part is listed here, and it is no random draw. Activity calls are given as the source filed them.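 The calls were made as follows: active = at least 40% inhibition at 20 µM here, with at most 30% in a related deaminase screen; inactive = the rest.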

Protein sequences, listed by entry. Tags and fused reporters are not part of them. Lines headed by an entry give the natural chain unless they say otherwise; changes in a name come on top.
UniProt P31941: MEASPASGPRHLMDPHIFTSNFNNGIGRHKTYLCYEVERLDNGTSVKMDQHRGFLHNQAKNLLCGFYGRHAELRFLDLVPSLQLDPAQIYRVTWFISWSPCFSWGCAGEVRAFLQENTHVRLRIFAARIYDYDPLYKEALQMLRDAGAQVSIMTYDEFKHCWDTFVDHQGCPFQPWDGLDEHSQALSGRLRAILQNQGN

The compounds below were run against DNA dC->dU-editing enzyme APOBEC-3A (Homo sapiens) (UniProt P31941) (assay: APOBEC3A ssDNA deaminase inhibitors, primary screen, selectivity assay for APOBEC3G inhibitor project, biochemical, FAM/TAMRA oligo cleavage fluorescence (AID 493011;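 also: plate controls were A3A with DMSO for no effect and wells lacking A3A enzyme for full effect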)). Conditions: recombinant A3A, FAM/TAMRA ssDNA deamination fluorescence; at 20 µM; hits give high values.
With `COc1cc(C2NCCC3(OCCO3)C2(C)C)cc(OC)c1OC` (stereo unspecified) the inhibition was inactive: -0.211%. With `CCOP(=O)(Nc1cccc2ccccc12)OCC` the inhibition was inactive: -0.538%. For `CCCOP(=S)(Nc1nc(N)cc(=O)[nH]1)OCCC`, the inhibition was inactive: -5.35%. `Cc1ccc(NCCc2c([N+](=O)[O-])cc([N+](=O)[O-])cc2[N+](=O)[O-])cc1` was tested, and the inhibition was inactive: 4.27%. In the case of `O=[As](O)(c1cccc(O)c1)c1cccc(O)c1`, the inhibition is reported as inactive: 2.14%. For `Cc1cccc(OCC(=O)OC2CN3CCC2CC3)c1` (stereo unspecified), the inhibition was inactive: -1.51%. `COc1cc(C(=O)NCC2(N3CCOCC3)CCCCC2)cc(Cl)c1OC(C)C` was tested, and the inhibition was inactive: -0.561%. With `O=[As](O)(O)c1cccnc1` the inhibition was inactive: 5.05%. For `CS(=O)(=O)c1ccc(Cl)c(NC(=O)COC(=O)C(O)(c2ccccc2)c2ccccc2)c1`, the inhibition was inactive: -2.11%. For `O=C(OC1CN2CCC1CC2)c1ccc(Cl)cc1` (stereo unspecified), the inhibition was inactive: 0.928%. `CN(C)C(=O)c1cc([N+](=O)[O-])cc2c1-c1c(cc([N+](=O)[O-])cc1[N+](=O)[O-])C2=O` was tested, and the inhibition was inactive: -2.35%. With `O=[N+]([O-])c1ccc2c(c1)nnn2O` the inhibition was inactive: 0.784%. For `CN(C(=O)Cc1ccc(Cl)c(Cl)c1)[C@H]1CC[C@@]2(CCCO2)C[C@@H]1N1CCCC1`, the inhibition was inactive: -1.67%. In the case of `N#CCCN(C(=O)COC(=O)C(O)(c1ccccc1)c1ccccc1)c1ccc(F)cc1`, the inhibition is reported as inactive: -2.57%. With `CCOP1(=S)c2c(C)nn(CCC#N)c2N=C(c2ccc(F)cc2)N1C` (stereo unspecified) the inhibition was inactive: -3.73%. For `CN(C(=O)Cc1ccccc1)[C@@H]1CC[C@]2(CCCO2)C[C@H]1N1CCCC1`, the inhibition was inactive: 0.127%. In the case of `NC(=O)Nc1ccc([As](=O)(O)O)cc1`, the inhibition is reported as inactive: -3.24%. With `Nc1ccccc1[As](=O)(O)c1ccccc1` the inhibition was inactive: -11.2%. In the case of `O=C(O)COc1ccc([As](=O)(O)O)cc1[N+](=O)[O-]`, the inhibition is reported as inactive: 2.35%. `CS(=O)(=O)c1cc([N+](=O)[O-])c2no[n+]([O-])c2c1` was tested, and the inhibition was inactive: 11.5%. For `CCOP1(=S)c2c(C)nn(CCC#N)c2N=C(c2ccccc2F)N1C` (stereo unspecified), the inhibition was inactive: -4.75%. In the case of `O=P(Nc1nccs1)(c1ccccc1)c1nc2ccccc2s1` (stereo unspecified), the inhibition is reported as inactive: 24.7%. In the case of `O=P(Nc1nccs1)(Oc1ccccc1)Oc1ccccc1`, the inhibition is reported as inactive: -0.547%. With `O=P1(Nc2ccc(Br)cn2)COc2ccccc2OC1` the inhibition was inactive: -0.093%. With `NS(=O)(=O)c1cccc(NC(=O)COC(=O)C(O)(c2ccccc2)c2ccccc2)c1` the inhibition was inactive: -2.65%. `Cc1ccc(OCC(=O)OC2CN3CCC2CC3)cc1` (stereo unspecified) was tested, and the inhibition was inactive: -0.415%. In the case of `O=[As](O)(c1cccs1)c1cccs1`, the inhibition is reported as inactive: -0.927%. With `Nc1cccc([As](=O)(O)c2ccccc2)c1` the inhibition was inactive: -12.8%. `O=P1(Nc2ncccn2)COc2ccccc2OC1` was tested, and the inhibition was inactive: 0.344%. `O=C(/C=C/c1ccccc1)OC1CN2CCC1CC2` (stereo unspecified) was tested, and the inhibition was inactive: -3.52%. With `CN(C)C1(CNC(=O)c2ccc(S(C)(=O)=O)cc2)CCCCC1` the inhibition was inactive: -2.91%. `Cc1nn(-c2ccccc2)c2c1P(=O)(N1CCOCC1)N(C)C(c1ccccc1)=N2` (stereo unspecified) was tested, and the inhibition was inactive: 0.278%. For `CC1CCC(C(C)C)C(OP(=O)(Nc2ccccn2)c2ccccc2)C1` (stereo unspecified), the inhibition was inactive: -0.185%. With `Cc1ccc(C(=O)OC2CN3CCC2CC3)cc1` (stereo unspecified) the inhibition was inactive: 0.057%. `O=[As](O)(c1ccccc1Br)c1ccccc1Br` was tested, and the inhibition was inactive: 0.267%. For `CC1(CBr)Cn2c(nc3ccccc3c2=O)S1` (stereo unspecified), the inhibition was inactive: -0.59%. In the case of `CC(C)/C=N\N=C(\N)N[N+](=O)[O-]`, the inhibition is reported as inactive: -3.24%. With `CN(C(=O)Cc1ccc(Cl)c(Cl)c1)[C@@H]1CCCC[C@H]1N1CCCC1` the inhibition was inactive: -3.29%. `COc1ccccc1CNC(=O)COC(=O)C(O)(c1ccccc1)c1ccccc1` was tested, and the inhibition was inactive: 0.538%. `Clc1n[nH]nc1-c1nn[nH][15n]1` was tested, and the inhibition was inactive: 3.86%. `CC(C)(C)C(=O)NC(Sc1ncccn1)C(Cl)(Cl)Cl` (stereo unspecified) was tested, and the inhibition was inactive: -2.56%. In the case of `CN(CCCl)Cc1cc(Cl)c(NC2=NCCN2)c(Cl)c1`, the inhibition is reported as inactive: -5.79%. For `CCOP(=O)(Nc1ccc(C)cn1)OCC`, the inhibition was inactive: -1.3%. `O=P1(Nc2ccccn2)COc2ccccc2OC1` was tested, and the inhibition was inactive: -3%. For `CCC1=CC2Cc3nc4ccc(Cl)cc4c(N)c3C(C1)C2` (stereo unspecified), the inhibition was inactive: 3.88%. `CCOP(=O)(NC(=NC(C)c1ccccc1)NC(C)c1ccccc1)OCC` (stereo unspecified) was tested, and the inhibition was inactive: -0.31%. With `CCC(C)N(CC(C)C)C(=S)SC(NC(C)=O)C(Cl)(Cl)Cl` (stereo unspecified) the inhibition was inactive: 3.87%. In the case of `CCOC(=O)c1ccc(NC(=O)C(C)(CCl)SC)cc1` (stereo unspecified), the inhibition is reported as inactive: -4.57%. With `O=C(OC1CN2CCC1CC2)c1cccc([N+](=O)[O-])c1` (stereo unspecified) the inhibition was inactive: -3.47%. `O=C(COc1ccccc1)OC1CN2CCC1CC2` (stereo unspecified) was tested, and the inhibition was inactive: 2.67%. `O=C(Nc1ccncc1[N+](=O)[O-])c1ccc([N+](=O)[O-])cc1[N+](=O)[O-]` was tested, and the inhibition was inactive: -3.57%. For `COP1(=S)c2c(C)nn(CCC#N)c2N=C(c2ccc(F)cc2)N1C` (stereo unspecified), the inhibition was inactive: 1.37%. In the case of `O=P(Nc1ccccn1)(c1cccc2ccccc12)c1cccc2ccccc12`, the inhibition is reported as inactive: -3.77%. With `Cc1cc(SC(NC=O)C(Cl)(Cl)Cl)ncn1` (stereo unspecified) the inhibition was inactive: -7.67%. In the case of `CCOC(=O)Nc1cccc([As](=O)(O)O)c1`, the inhibition is reported as inactive: -0.123%. With `CCCCOc1ccc(C(=O)NCC2(N3CCCCC3)CCCCC2)cc1OC` the inhibition was inactive: -2.46%. With `Cc1cc(SC(NC(=O)c2ccccc2)C(Cl)(Cl)Cl)nc(C(C)C)n1` (stereo unspecified) the inhibition was inactive: 3.69%. For `CCOC(=O)Nc1ccc([As](=O)(O)O)c(O)c1`, the inhibition was inactive: 2.55%. With `CCN(CC)C(=S)SC(NC=O)C(Cl)(Cl)Cl` (stereo unspecified) the inhibition was inactive: -3.05%. For `O=C(OC1CN2CCC1CC2)c1cccc2[nH]cnc12` (stereo unspecified), the inhibition was inactive: 1.04%. In the case of `CC(C)NC(=O)NP(=O)(Oc1ccccc1)Oc1ccccc1`, the inhibition is reported as inactive: 0.574%. In the case of `O=[N+]([O-])c1cc([N+](=O)[O-])c(-c2ccn[nH]2)s1`, the inhibition is reported as inactive: 5.83%. In the case of `CC(C)c1ccc(OP(=O)(Nc2ccccn2)Oc2ccccc2F)cc1` (stereo unspecified), the inhibition is reported as inactive: 6.13%. In the case of `ClCCSc1nnc(-c2cccnc2)o1`, the inhibition is reported as inactive: 3.8%. `Cc1ccc2nc3c(c(C)c2c1)CC(C(Cl)Cl)S3` (stereo unspecified) was tested, and the inhibition was inactive: -0.845%. For `Cc1ccc(OP(=O)(Nc2ccc([N+](=O)[O-])cn2)Oc2ccc(C)cc2)cc1`, the inhibition was inactive: 2.15%. For `O=[As](O)(c1ccc(O)cc1)c1ccccc1O`, the inhibition was inactive: -7.4%. In the case of `C[As](=O)(O)c1cccc(C(=O)O)c1`, the inhibition is reported as inactive: 0.152%. With `COc1cc(C(=O)NCC2(N3CCOCC3)CCCCC2)ccc1OCC(C)C` the inhibition was inactive: 1.04%. In the case of `COc1ccc(N/C(=N/P(=O)(N2CCOCC2)N2CCOCC2)N2CCOCC2)cc1`, the inhibition is reported as inactive: 3.27%. In the case of `COc1ccc2nc(NP(=O)(c3ccccc3)c3ccccc3)sc2c1`, the inhibition is reported as inactive: -0.314%. In the case of `COc1cc(I)ccc1[As](=O)(O)O`, the inhibition is reported as inactive: 1.81%. For `O=C(OC1CN2CCC1CC2)C12CC3CC(CC(C3)C1)C2` (stereo unspecified), the inhibition was inactive: 1.09%. For `Cc1cc(=O)[nH]c(N[N+](=O)[O-])n1`, the inhibition was inactive: -1.53%. In the case of `Cc1c2c(nc3ccccc13)SC(C(Cl)Cl)C2` (stereo unspecified), the inhibition is reported as inactive: -3.34%. `CC(C)CC(=O)NC(Sc1ccc(Cl)cc1)C(Cl)(Cl)Cl` (stereo unspecified) was tested, and the inhibition was inactive: -2.81%. With `Nc1cc(N)c2nonc2c1[N+](=O)[O-]` the inhibition was inactive: 6.13%. With `Oc1ccccc1CNc1ccccn1` the inhibition was inactive: -3.53%. With `Cc1c2non([O-])c-2c(C)[n+](=O)[n+]1[O-]` the inhibition was inactive: -0.767%. With `O=C(NC(Sc1ccncn1)C(Cl)(Cl)Cl)c1ccccc1` (stereo unspecified) the inhibition was inactive: 2.33%. With `COc1ccccc1OP(=O)(Nc1ccc(C)cn1)Oc1ccccc1OC` the inhibition was inactive: 2.21%. With `Cc1ccc(OP(=O)(Nc2nccs2)Oc2ccc(C)cc2)cc1` the inhibition was inactive: -4.46%. In the case of `Clc1ccc(Cl)c(NC2=NCC(CBr)S2)c1` (stereo unspecified), the inhibition is reported as inactive: -2.31%. With `CN1CCCC(OC(=O)C(c2ccccc2)c2ccccc2)C1` (stereo unspecified) the inhibition was inactive: -2.37%. For `NC(=O)c1cc([N+](=O)[O-])cc([N+](=O)[O-])c1N`, the inhibition was inactive: -2.56%. `CN(C(=O)Cc1ccc(Cl)c(Cl)c1)[C@H]1CCCC[C@H]1N1CCCC1` was tested, and the inhibition was inactive: 0.664%. In the case of `Cc1ccc(N/C(=N/P(=O)(N2CCOCC2)N2CCOCC2)N2CCOCC2)cc1`, the inhibition is reported as inactive: -1.64%. For `CCN(N=Nc1nonc1N)c1nonc1N`, the inhibition was inactive: 0.074%. In the case of `O=[N+]([O-])c1cc([N+](=O)[O-])c(CCN2CCOCC2)c([N+](=O)[O-])c1`, the inhibition is reported as inactive: 2.21%. In the case of `CCOP(=O)(Nc1ccccc1)OCC`, the inhibition is reported as inactive: 1.75%. `Cc1cc(SC(NC(=O)c2ccc(F)cc2)C(Cl)(Cl)Cl)ncn1` (stereo unspecified) was tested, and the inhibition was inactive: -1.92%. `Cc1ccc(NP(=O)(Oc2ccccc2F)Oc2ccccc2F)nc1` was tested, and the inhibition was inactive: -1.1%. `CN(C(=O)Cc1ccc(Cl)c(Cl)c1)[C@H]1CCCC[C@@H]1N1CCCC1` was tested, and the inhibition was inactive: -2.1%. For `O=C(O)c1ccccc1[As](=O)(O)O`, the inhibition was inactive: -2.57%. For `CC(=O)Nc1ccc([As](=O)(O)O)cc1`, the inhibition was inactive: 1.55%. For `O=P(Nc1nc2ccc(Cl)cc2s1)(c1ccccc1)c1ccccc1`, the inhibition was inactive: -4.57%. In the case of `O=[N+]([O-])c1cccc(NC2=NCC(CBr)S2)c1` (stereo unspecified), the inhibition is reported as inactive: -3.5%. For `CC(C)(C)C(=O)NC(Sc1ccncn1)C(Cl)(Cl)Cl` (stereo unspecified), the inhibition was inactive: -3.04%. In the case of `O=[N+]([O-])c1ncn(CCn2ncnc2[N+](=O)[O-])n1`, the inhibition is reported as inactive: -0.796%. With `O=C(Nc1cc([As](=O)(O)O)ccc1O)c1ccccc1` the inhibition was inactive: -1.79%. `CC(C)=N/N=C(\N)N[N+](=O)[O-]` was tested, and the inhibition was inactive: -0.508%.
